In US20120114639A1, “COMPOSITIONS AND METHODS FOR INHIBITING VIRAL AND/OR BACTERIAL INFECTIONS” (priority 2010, published 2012):

Key:
[1] = test system: HaCaT cells; assay: Cell cycle analysis by propidium iodide flow cytometry; assay type: cell-based, human; conditions: HaCaT cells in CM infected with HPV16, same inhibitor conditions as infection assays
Experimental: FIG. 7. GFR activation, serum components including GF, and EGFR are important for HPV16 infections. (A) Relative HPV16 infection of HaCaT cells in the presence of specific GFR and protein tyrosine kinase inhibitors. […] Cells were exposed to HPV16 PsV at 100 vge/cell for one hour at 4° C., then washed extensively and shifted to 37° C. in the presence of the indicated inhibitor in CM for 24 hours at which time they were analyzed for luciferase expression. Data are represented as mean±SEM of three experiments. (B-C) EGFR knockdown was accomplished using siRNA to EGFR and the percent of EGFR protein remaining in EGFR-siRNA transfected HaCaT cells was determined by immunoblot and compared by densitometry to EGFR levels in cells transfected with a negative control siRNA at 48 hours post transfection. Four separate transfections were analyzed (B) and HPV16 PsV infection levels were measured at 24 hours post infection (48 hours post transfection) in each (C). Error bars represent the average of triplicate luciferase readings from the four transfections. […] Infection was quantified by luciferase assay 24 hours post shift to 37° C. […] Infections were quantified by luciferase assay; bars represented the mean SEM of three individual experiments. […] The fractions of cells in G1 (1n), S (intermediate), and G2/M (2n) phases were expressed as percentages of the total. […]

[2] = test system: p-EGFR, p-KGFR and downstream effector p-ERK1/2; assay: EGFR and KGFR signal activation, phospho-protein immunoblot in serum-starved HaCaT cells; assay type: cell-based, human; conditions: 10 minutes ligand exposure; 100 nM PD168393, 1 μM PD173074, 100 μM genistein, 100 μM daidzein, 600 nM cetuximab
Experimental: FIG. 6. […] (A-B) Immunoblot of p-EGFR, p-KGFR and downstream effector p-ERK1/2 following 10 minutes ligand exposure (listed at the left of each blot: EGF, KGF, HPV16 PsV; lane 2) in serum-starved HaCaT cells. Mock exposed cells were negative controls (lane 1); ligand controls included 10 ng/ml EGF and 10 ng/ml KGF exposure (10 minutes). […] Actin is detected as a loading control. (C-D) Immunoblot of nuclear cell fractions and confocal microscopy localization of p-ERK1/2 following EGF and HPV16 exposure in serum-starved HaCaT cells at indicated times post-exposure. (C) Immunoblot for p-ERK1/2 in nuclear fractions from exposed cells. (D) Immunofluorescent confocal microscopy for localization of p-ERK1/2 (red) in PsV exposed cells. DAPI was used as a nuclear marker and was pseudocolored green to facilitate efficient co-localization of p-ERK1/2 in the nucleus. Parameters of lasers intensities were kept constant during the imaging.
Subconfluent HaCaT cells were serum-starved for 3-4 hours in Tyrode's buffer containing 0.05% BSA. After adding ˜100 vge/cell HPV16 PsV, 10 ng/ml EGF or 10 ng/ml KFG, cells were incubated at 37° C. for 10 minutes before transferring to ice and solubilizing cells with RIPA buffer. […]

[3] = test system: HPV16; assay: HPV16 PsV infection of HaCaT cells, luciferase assay; assay type: cell-based, human papillomavirus; conditions: HaCaT in CM, 24 hours in presence of inhibitor; 1 μM AG1478, 100 nM PD168393, 100 μM genistein, 1 μM PD173074, 100-600 nM cetuximab; 100 vge/cell
Experimental: FIG. 2. HPV16 and syndecan-1 release from the HaCaT cell plasma membrane is MMP dependent. (A, B) Immunoblot for syndecan-1 (polyclonal syndecan-1 Ab) after 24 hours at 37° C. in CM (A) or post starvation in SFM and after six hours at 37° C. in Tyrode's Buffer (B); immunoblot for HPV16 L1 released into CM post virus binding for indicated times (C) or 24 hours (E). (D) Gelatin zymography showing protease activity present in HaCaT cell CM alone or with binding of HPV16. (E-F) Effect of MMP inhibitors batimistat (BM) or marimastat (MM) at the indicated concentrations on HPV16 release into media as in panel C and densitometric quantification with AlphaEaseFC software (E) and relative infection levels (F). […] Infection was assayed by quantifying luciferase levels at 24 hours p.i. […] HPV16 infection was measured with luciferase assay. […]
FIG. 7. […] Cells were exposed to HPV16 PsV at 100 vge/cell for one hour at 4° C., then washed extensively and shifted to 37° C. in the presence of the indicated inhibitor in CM for 24 hours at which time they were analyzed for luciferase expression. […] (B-C) EGFR knockdown was accomplished using siRNA to EGFR and the percent of EGFR protein remaining in EGFR-siRNA transfected HaCaT cells was determined by immunoblot and compared by densitometry to EGFR levels in cells transfected with a negative control siRNA at 48 hours post transfection. […]

cetuximab: EGFR-specific monoclonal antibody that binds to the EGFR extracellular domain
cell cycle distribution (G1, S, G2/M) versus no treatment [1]: relatively similar | rapid phosphorylation of the target GFR and downstream p-ERK1/2 induced by GFs or HPV16 [2]: abrogated | block of HPV16 infection / reduction of infectivity [3]: 50%
